The numbers were not newly measured in patent US20110155130A1, “Dronabinol Treatment for Migraines” (Unimed Pharmaceuticals, Inc., priority 2005, published 2011), which cites them from elsewhere.

For this data set the following is noted: acute migraine attacks.

Each structure is given as a SMILES string.

On to `O=C(O)C(O)C(O)C(=O)O.Oc1ccc2c(c1)[C@@]13CCCC[C@@]1(O)[C@@H](C2)N(CC1CCC1)CC3` [Butorphanol tartrate], for which the “onset of pain relief” value was at most 15 min.
